The source of these data is US4317775A (Hoffmann-La Roche Inc., priority 1980, dated 1982).

Molecules are shown by their SMILES. Where a name gives a salt, the structure may show the parent alone.

The test system of the assay is S. aureus. Nature of the assay: In vivo activity against systemic infection in mice, S. aureus. The following applies: oral, in mg/kg. An excerpt: The PD50 is the protective dose for 50% of the animals treated against a challenge organism.

`CC1(C)S[C@@H]2[C@H](NC(=O)[C@@H](c3ccc(O)cc3)N(C3CCCCO3)C3CCCCO3)C(=O)N2[C@H]1C(=O)O` (relative stereo) [Compound II, {2S-[2α,5α,6β(S*)]}-6-[bis(tetrahydro-2-H-pyran-2-yl)amino]{[(4-hydroxyphenyl)acetyl]amino}-3,3-dimethyl-7-oxo-4-thia-1-azabicyclo[3.2.0]heptane3-carboxylic acid sodium salt] displayed a PD50 of 0.6.
